For the data set the following is noted: water at 20° C.; stated in words.

As to N,N-dimethylisopropanolamine, the miscibility with water entry is given as “completely miscible with water”.

For the origin of these results see US20220325122A1, “Ink Set And Recording Method” (Seiko Epson Corporation, priority 2021, published 2022).
